Screens: PubChem, Broad Institute
CAL PDZ FP-1: inhibitors of human CAL PDZ peptide binding. hit rate 0.02% among 330,000. purified CAL PDZ, TMR-peptide fluorescence polarization, 1 h. inhibition, % at 20 µM. Q9HD26;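 active = highest replicate inhibition of at least 40%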
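Test system: tagged CAL PDZ domain / Buffer or medium: sodium phosphate/NaCl buffer pH 7.4 with TCEP, IgG, Thesit / Reagent: TMR-labelled reporter peptide T*-PRC34 bound in PDZ groove / Compound dosing: single point, 20 µM / Schedule: 1 h incubation at room temperature before polarization reading / Technique: fluorescence polarization (mP) / Benchmarks: unlabelled peptide, DMSO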
Vif inh: HIV Vif inhibition | HEK293T cells, Vif self-association by quenched fluorescence, imaging, 24 h | inhibition, % at 7.49 µM | hit rate 0.35% among 340,000; in the data active = inhibition above about 50%, passing the limit was not always enough
UUG fidelity: modulators of start codon recognition fidelity in yeast; AID 602363; hit rate 0.13% among 350,000; activity score, % at 18.7 µM; S. cerevisiae UUG-firefly luciferase reporter, luminescence/redox ratio;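 active = replicate mean at a twofold rise or more, about +100% in these data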;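 note: firefly luciferase made from a UUG start codon reports start codon fidelity; reporter light over untreated wells divided by growth signal over untreated wells; some hits fall short of that in this replicate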
CAL PDZ FP-2: blocks peptide binding to the human CAL PDZ domain; Q9HD26; AID 602252; purified CAL PDZ, TMR-peptide fluorescence polarization, 1 h; inhibition, % at 24.9 µM; hit rate 0.92% among 300,000;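 active = mean inhibition of at least 30% with at least half of replicates also reaching 30%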
PglD inh: blocks C. jejuni PglD acetyltransferase activity; purified PglD enzyme, DTNB colorimetric CoA detection; inhibition, % at 12.5 µM; hit rate 0.098% among 360,000; in the data active = inhibition above about 16%, passing the limit was not always enough
ARNT TACC3 PPI: disruptors of human ARNT/TACC3 interaction. AlphaScreen His-ARNT PAS-B/GST-TACC3 binding, luminescence; TACC3 fragment carries E629A point mutation. inhibition, % at 9.99 µM. Q9Y6A5. hit rate 0.66% among 390,000. AID 623870;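 active = mean inhibition of replicates at least 50% and at least half of replicates each reaching 50%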
ARNT Alpha ctr-1: AlphaScreen artifact in ARNT/TACC3 counter-screen | His-ARNT PASB-GST AlphaScreen artifact counter-screen, luminescence | hit rate 50% among 1,200 | AC50, µM (doses to about 68 µM) | shares compounds with ARNT TACC3 PPI | AID 651705;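 active = every separate test run was called active for a drop in luminescence, with AC50 within twice the top valid dose, actives reach about 71 µM in these data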
ARNT Alpha ctr-2: AlphaScreen artifact flagged for ARNT-TACC3 inhibitors. AC50, µM. shares compounds with ARNT TACC3 PPI. hit rate 70% among 45. AID 720564. Dual-tagged His-ARNT PASB-GST AlphaScreen artifact counter-screen;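 active = luminescence drop, with half-maximal potency fitted within twice the sample's top valid dose, cut at about 70 µM in these data; inactive = the rest, including signal moving the wrong way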
Numbers stand for hits; . = inactive; / = no result. An excerpt weighted towards active compounds, which were near 1.6% of everything screened.

SMILES	CAL PDZ FP-1	Vif inh	UUG fidelity	CAL PDZ FP-2	PglD inh	ARNT TACC3 PPI	ARNT Alpha ctr-1	others
Oc1cccc(CN2CCOCC2)c1O	.	.	.	.	.	15	.
COc1ccc(C2C(C#N)=C(N)Oc3n[nH]c(-c4ccccn4)c32)c(OC)c1OC (stereo not drawn)	.	.	.	.	.	60	.
NC(=O)CC(NC(=O)c1ccccc1)c1ccc(NCc2ccccn2)c([N+](=O)[O-])c1 (stereo not drawn)	.	/	.	.	.	65	.
COc1ccc(CN(C)C[C@H]2Oc3ccc(NS(=O)(=O)c4cn(C)cn4)cc3C(=O)N([C@@H](C)CO)C[C@@H]2C)cc1	/	/	.	/	.	.	/
Cc1nc(Nc2ccc(C(=O)O)cc2)nc(Nc2ccc(C(=O)O)cc2)c1[N+](=O)[O-]	.	.	/	/	/	64	9.4µM
O=C(Nc1ccc2c(c1)[C@H]1C[C@H](CC(=O)N3CCCCC3)O[C@H](CO)[C@H]1O2)c1ccc2c(c1)OCO2	/	/	.	/	.	.	/
Cc1c(NC(=O)c2cccnc2C(=O)O)cccc1C(=O)O	.	.	/	.	/	34	.
Cc1ccoc1C(=O)NCCCNC(=O)c1occc1C	.	.	.	.	.	56	.
Nc1ccc2nn(-c3ccc(F)cc3)nc2c1	.	.	.	.	.	17	.
Cc1ccc(-n2nc3ccc(N)cc3n2)cc1	.	.	.	.	.	/	/
Cc1ccc(C(=O)Nc2nc(-c3ccccn3)cs2)cc1S(=O)(=O)N1CCOCC1	.	.	.	.	.	66	24µM	ARNT Alpha ctr-2=10
O=C(Nc1nc(-c2ccccn2)cs1)c1ccc(F)c(S(=O)(=O)N2CCOCC2)c1	.	.	.	.	.	68	9µM
Cc1nnc(NC(=O)c2ccc(F)c(S(=O)(=O)N3CCOCC3)c2)s1	.	.	.	.	.	.	/
Cc1ccc(S(=O)(=O)N2CCOCC2)cc1C(=O)Nc1nc(-c2cccnc2)cs1	.	/	.	.	.	.	/
Cc1ccc(C(=O)Nc2ccccn2)cc1S(=O)(=O)N1CCOCC1	.	.	.	.	.	.	/
O=C(Nc1nc(-c2ccccn2)cs1)c1cc(S(=O)(=O)N2CCOCC2)ccc1F	.	.	.	.	.	74	23µM
C[C@H]1CN([C@@H](C)CO)C(=O)c2cc(NC(=O)c3ccncc3)ccc2O[C@H]1CN(C)C(=O)NC1CCCCC1	/	/	.	/	.	.	/
Cc1[nH]n(-c2ccccc2)c(=O)c1/C=N/NC(=O)COc1ccccc1[N+](=O)[O-]	.	.	/	.	/	59	.
CC(=O)Nc1cccc(NC(=O)CSc2ccc(-c3ccccn3)nn2)c1	.	.	/	.	/	58	14µM
CC(=O)c1cccc(NC(=O)CSc2ccc(-c3ccccn3)nn2)c1	.	.	.	.	.	55	15µM
CC(=O)Nc1cccc(NC(=O)CSc2nnc3ccc(-c4ccccn4)nn23)c1	.	.	.	.	.	.	/
Cc1cccc(NC(=O)CSc2ccc(-c3cccnc3)nn2)c1	.	.	.	.	.	.	/
Cc1ccc(NC(=O)CSc2ccc(-c3ccccn3)nn2)cc1F	.	.	.	.	.	50	.
COc1cc(NC(=O)CSc2ccc(-c3ccccn3)nn2)cc(OC)c1	.	.	.	.	.	59	11µM
COc1ccc(C)cc1NC(=O)CSc1ccc(-c2ccccn2)nn1	.	.	.	.	.	54	19µM
SMILES	CAL PDZ FP-1	Vif inh	UUG fidelity	CAL PDZ FP-2	PglD inh	ARNT TACC3 PPI	ARNT Alpha ctr-1	others
C[C@@H]1CCCCO[C@H](CN(C)C(=O)c2ccncc2)[C@H](C)CN([C@@H](C)CO)C(=O)c2cc(NS(=O)(=O)c3ccccc3)ccc2O1	/	/	.	/	.	.	/
CCC(COC)Oc1cc(NCc2ccccc2)c2ncn(C(C)C)c2c1 (stereo not drawn)	.	.	.	.	.	56	34µM
CCC(COC(=O)c1ccccc1)Oc1cc(NCc2ccccc2)c2ncn(C(C)C)c2c1 (stereo not drawn)	.	.	.	.	.	.	/
CN(C)CCN(C(=O)c1ccc2c(c1)CCCC2)c1nc2cc3c(cc2s1)OCCO3	.	/	.	.	.	52	24µM
CN(C)CCN(C(=O)c1ccc2c(c1)OCCO2)c1nc2cc3c(cc2s1)OCO3	.	.	.	.	.	.	/
COC(=O)C(CC#Cc1ccc2c(c1)[C@]1(C(=O)N2)[C@H](C(=O)N2CCCCCCC2)[C@H]2C(=O)O[C@H](c3ccccc3)[C@H](c3ccccc3)N2[C@@H]1c1ccc(OCCO)cc1)C(=O)OC	/	/	.	/	.	.	/
COC(=O)C(CC#Cc1ccc2c(c1)[C@]1(C(=O)N2)[C@H](c2ccc(O)cc2)N2[C@H](c3ccccc3)[C@H](c3ccccc3)OC(=O)[C@H]2[C@@H]1C(=O)N1CCCCCCC1)C(=O)OC	/	/	.	/	.	68	.
C[C@@H]1CN([C@@H](C)CO)C(=O)Cc2cc(NC(=O)C3CCCCC3)ccc2O[C@H]1CN(C)S(C)(=O)=O	/	/	.	/	.	.	/
CCCN1C[C@H](C)[C@@H](OC)CN(C)C(=O)c2ccc(NC(=O)C3CCC3)cc2OC[C@H]1C	/	/	.	/	.	.	/
CCOc1ccc(-n2nc3ccc(N)cc3n2)cc1	.	.	.	.	.	.	/
Cn1c(-c2ccc(Cl)cc2)cnc1N	.	.	.	.	.	58	58µM
CCOc1ccc(-c2cnc(N)n2C)cc1	.	.	.	.	.	54	.
Cc1cc(NC(c2cccnc2)c2ccc3cccnc3c2O)no1 (stereo not drawn)	.	.	.	.	.	63	11µM
Oc1c(C(Nc2ccccn2)c2cccnc2)cc(Cl)c2cccnc12 (stereo not drawn)	.	.	/	.	/	57	15µM
Oc1c(C(Nc2cccc(C(F)(F)F)c2)c2cccnc2)ccc2cccnc12 (stereo not drawn)	.	.	/	.	/	.	/
COc1ccc(C(NC(=O)c2cccnc2)c2cc(Cl)c3cccnc3c2O)cc1OC (stereo not drawn)	.	.	.	.	.	.	/
C[C@@H]1CCCCO[C@@H](CN(C)Cc2ccc3c(c2)OCO3)[C@H](C)CN([C@@H](C)CO)C(=O)c2cc(NC(=O)Nc3cccc4ccccc34)ccc2O1	/	/	.	/	.	.	/
CN(C)C(=O)C[C@H]1C=C[C@@H](NS(=O)(=O)c2ccccc2)[C@@H](CO)O1	/	/	.	/	.	.	/
O=C(O)C1CCCCC1C(=O)NCCCn1ccnc1 (stereo not drawn)	.	.	/	/	/	67	.
O=C(O)C1C2C=CC(C2)C1C(=O)NCCCN1CCCC1=O (stereo not drawn)	.	.	.	/	.	.	/
